# Columns and labels:
# Protein sequences, listed by entry. Tags and fused reporters are not part of them. Residues count along the entry.
# UniProt G1T4Q9, 1-263: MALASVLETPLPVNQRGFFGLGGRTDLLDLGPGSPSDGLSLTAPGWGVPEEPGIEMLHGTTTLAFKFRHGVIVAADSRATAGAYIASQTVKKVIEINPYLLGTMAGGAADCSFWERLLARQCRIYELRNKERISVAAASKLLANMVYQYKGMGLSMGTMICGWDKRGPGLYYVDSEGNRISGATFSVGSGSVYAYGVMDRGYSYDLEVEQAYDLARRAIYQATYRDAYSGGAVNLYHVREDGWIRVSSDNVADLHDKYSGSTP
# [1] = target: T1, trypsin-like activity of purified rabbit 20S proteasomes (Oryctolagus cuniculus, UniProt G1SWK8); assay: In vitro inhibition of trypsin-like activity of purified rabbit muscle 20S proteasome (Boc-LRR-AMC, no SDS); type: biochemical; conditions: purified rabbit 20S proteasome
# T1 construct: Purified rabbit muscle 20S proteasome was obtained from Boston Biochem; purchased Boston Biochem (Cambridge, Mass.); host or cells: rabbit muscle
# T1 sequence (G1SWK8 1-271): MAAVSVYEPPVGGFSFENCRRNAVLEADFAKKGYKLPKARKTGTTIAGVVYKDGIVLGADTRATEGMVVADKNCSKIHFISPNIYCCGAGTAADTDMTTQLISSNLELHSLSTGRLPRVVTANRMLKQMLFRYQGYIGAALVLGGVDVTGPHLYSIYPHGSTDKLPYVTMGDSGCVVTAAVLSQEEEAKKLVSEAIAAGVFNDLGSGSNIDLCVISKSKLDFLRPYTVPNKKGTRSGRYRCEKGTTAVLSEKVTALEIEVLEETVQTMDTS
# Experimental: (§1) The compound XVI-1A as obtained synthetically using a method described herein and by fermentation as described in U.S. Pat. No. 7,144,723, which is hereby incorporated by reference in its entirety. Both the synthetic and fermentation compounds XVI-1A were prepared as 20 mM stock solution in DMSO and stored in small aliquots at −80° C. Purified rabbit muscle 20S proteasome was obtained from Boston Biochem (Cambridge, Mass.). To enhance the chymotrypsin-like activity of the proteasome, the assay buffer (20 mM HEPES, pH7.3, 0.5 mM EDTA, and 0.05% Triton X100) was supplemented with SDS resulting in a final SDS concentration of 0.035%. The substrate used was suc-LLVY-AMC, a fluorogenic peptide substrate specifically cleaved by the chymotrypsin-like activity of the proteasome. Assays were performed at a proteasome concentration of 1 μg/ml in a final volume of 200 μl in 96-well Costar microtiter plates. […] After addition of test compounds to the rabbit 20S proteasomes, the samples were preincubated at 37° C. for five minutes in a temperature controlled Fluoroskan Ascent 96-well microplate reader (Thermo Electron, Waltham, Mass.). […] After the preincubation period, the reactions were initiated by the addition of 10 μl of the diluted substrate and the plates were returned to the plate reader. […] Fluorescence of the cleaved peptide substrate was measured at λex=390 nm and λem=460 nm. […]
# [2] = target: chymotrypsin-like activity of purified rabbit 20S proteasomes (Oryctolagus cuniculus, UniProt G1T4Q9); assay: In vitro inhibition of chymotrypsin-like activity of purified rabbit muscle 20S proteasome (suc-LLVY-AMC); type: biochemical; conditions: purified rabbit 20S proteasome
# Experimental: as §1
# [3] = XVI-1A obtained by fermentation
structure (smiles),measurement,setting,value
"C[C@@]12OC(=O)[C@]1([C@@H](O)[C@@H]1C=CCCC1)NC(=O)[C@@H]2CCCl [XVI-1A, Salinosporamide A]",IC50,[1]; [3],35 nM
same,IC50,[1]; XVI-1A obtained synthetically,37 nM
same,IC50,[2]; [3],2.6 nM
same,IC50,[2]; XVI-1A obtained synthetically,3.2 nM

# — patent publication US8067616B2, “Total synthesis of salinosporamide A and analogs thereof” (Nereus Pharmaceuticals, Inc., priority 2006, dated 2011)
